According to PubChem BioAssay (NCI):
Values joined by “and” are separate entries in the source; they are usually repeats but may differ in a detail not shown here. Identical values can stand only once.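 Cells were grown in 96-well plates and exposed to each compound for 48 hours at five concentrations; endpoints were interpolated linearly between bracketing concentrations, or set to the highest concentration if not reached. At the GI50, growth is halved. Definition used: TGI = concentration required for complete inhibition of growth.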

Legend:
Assay in all cases: NCI anticancer screen, dose series, 48 h
MDA-MB-435 = tested on: MDA-MB-435
HS 578T breast = tested on: HS 578T breast
KM20L2 colon = tested on: KM20L2 colon
COLO 205 colon = tested on: COLO 205 colon
SR leukemia = tested on: SR leukemia
RXF 393 renal = tested on: RXF 393 renal
T-47D breast = tested on: T-47D breast
XF 498 CNS = tested on: XF 498 CNS
LOX IMVI melanoma = tested on: LOX IMVI melanoma
HOP-18 NSCLC = tested on: HOP-18 NSCLC
MDA-N = tested on: MDA-N
HCT-116 colon = tested on: HCT-116 colon

CC(=O)OCC12CCC(C)=CC1OC1C(O)C(OC(C)=O)C2(C)C12CO2 (stereo unspecified)
GI50 (MDA-MB-435): 10.1 nM
TGI (MDA-MB-435): 29.2 nM and 24.7 nM
TGI (HS 578T breast): 40.8 nM and 27.9 nM
TGI (KM20L2 colon): 44.2 nM
TGI (COLO 205 colon): 48.8 nM and 30.3 nM
GI50 (SR leukemia): 1.23 nM
TGI (SR leukemia): 12.5 nM and 14.2 nM
TGI (RXF 393 renal): 4.13 nM and 35.6 nM and 23.5 nM
TGI (T-47D breast): 65.9 nM and 237 nM
TGI (XF 498 CNS): 3.03 nM and 21.9 nM
TGI (LOX IMVI melanoma): 22.4 nM
GI50 (HOP-18 NSCLC): 27.6 nM
TGI (HOP-18 NSCLC): 108 nM and 379 nM
GI50 (MDA-N): 16.8 nM and 13.6 nM
TGI (MDA-N): 47.2 nM and 37.9 nM
TGI (HCT-116 colon): 34.2 nM and 15 nM
